Measurements reported in published antibiotic growth screens (doi:10.1038/s41589-023-01349-8).
The list shows a part of the results.

Each molecule was assayed on A. baumannii ATCC 17978 (assay: relative growth (fraction of control); higher = less inhibition). Details: 50 µM.
`C=CCNS(=O)(=O)c1cccc2nonc12` was tested, and the relative growth was 0.932.
For `CCCCCC(C)N.O=S(=O)(O)O` (stereo not given), the relative growth was 1.03.
`COc1ccccc1-c1ccc2c(c1)O[C@H](CN(C)C(=O)c1ccncc1)[C@@H](C)CN([C@@H](C)CO)S2(=O)=O` gave a relative growth of 1.08.
`CCCNC(=O)Nc1ccc2c(c1)C(=O)N(C)C[C@H](OC)[C@H](C)CN(C(=O)C1CCOCC1)[C@@H](C)CO2` gave a relative growth of 0.89.
`CSCc1nc(=O)cc(C(=O)O)[nH]1` was tested, and the relative growth was 1.06.
In the case of `O=C(C[C@@H]1C=C[C@H](NC(=O)C2CCOCC2)[C@@H](CO)O1)NCCc1cscn1`, the relative growth is reported as 1.09.
`C[C@@H]1CN([C@@H](C)CO)S(=O)(=O)c2ccc(C#CC3CC3)cc2O[C@H]1CN(C)Cc1ccccc1F` showed a relative growth of 1.2.
`COc1ccc([C@@H]([C@H](Cc2ccccc2)OC(C)=O)N2C[C@H]3[C@@H]([C@@H](O)c4ccccc4)ON(C)[C@H]3[C@@H]2Cc2ccccc2)cc1` showed a relative growth of 0.989.
For `CC(=O)OC1CC2CCC1(C)C2(C)C` (stereo not given), the relative growth was 1.15.
Molecule `C[C@H](O)C#Cc1ccc2c(c1)O[C@@H](CN(C)C(=O)c1ccncc1)[C@@H](C)CN([C@@H](C)CO)S2(=O)=O` has a relative growth of 1.03.
Molecule `C[C@H](O)C#Cc1ccc2c(c1)O[C@H](CN(C)C(=O)CN(C)C)[C@@H](C)CN([C@H](C)CO)S2(=O)=O` has a relative growth of 0.955.
`C[C@H]1CN([C@@H](C)CO)S(=O)(=O)c2ccc(-c3cccc(F)c3)cc2O[C@H]1CN(C)S(C)(=O)=O` was tested, and the relative growth was 0.985.
For `Cc1cc(Nc2cc(C)on2)nc([C@H]2CCN(C(=O)CN)C2)n1`, the relative growth was 0.885.
`Cn1cnc(S(=O)(=O)N2C[C@H](O)COC[C@@H]3O[C@@H](CC(=O)NCc4ccc(F)cc4)CC[C@H]32)c1` gave a relative growth of 0.97.
`CC(C)CC(=O)N[C@H](C(=O)N[C@H](C(=O)N[C@@H](CC(C)C)[C@@H](O)CC(=O)N[C@@H](C)C(=O)N[C@@H](CC(C)C)[C@@H](O)CC(=O)O)C(C)C)C(C)C` was tested, and the relative growth was 0.916.
`C=c1nnsc1=C1NC(c2cc(C)on2)=NO1` was tested, and the relative growth was 0.918.
`COCC(=O)Nc1ccc2c(c1)C(=O)N(C)C[C@@H](OC)[C@@H](C)CN(Cc1cccc(F)c1)[C@@H](C)CO2` was tested, and the relative growth was 0.85.
`O=C(C[C@H]1CC[C@@H](NS(=O)(=O)c2ccc(F)cc2)[C@H](CO)O1)NCc1ccc(Cl)c(Cl)c1` gave a relative growth of 1.01.
`CCN(CC)CCNC(=O)COc1ccc(OC)cc1.Cl` gave a relative growth of 0.942.
`COC(CNC1=Nc2ncccc2OC1)OC` gave a relative growth of 0.946.
`CNC(=O)CN(C#N)c1nc(C)cc(C)n1` gave a relative growth of 1.05.
Molecule `COc1ccc(NC(=O)N[C@@H]2CC[C@@H](CCNC(=O)CN3CCOCC3)O[C@H]2CO)cc1` has a relative growth of 1.01.
With `COc1ccccc1S(=O)(=O)N[C@@H]1CC[C@@H](CCNC(=O)C2CC2)O[C@H]1CO` the relative growth was 1.06.
In the case of `COc1ccccc1CNC(=O)C[C@H]1CC[C@H]2[C@@H](COC[C@H](O)CN2C(=O)Nc2ccc(F)cc2)O1`, the relative growth is reported as 1.02.
`NC(=O)[C@H]1[C@H](C(=O)O)[C@@H]2C=C[C@H]1C2` showed a relative growth of 0.895.
Molecule `O=C(N[C@@H]1CC[C@H](CC(=O)N2CCOCC2)O[C@H]1CO)c1ccc2c(c1)OCO2` has a relative growth of 1.12.
`COC(=O)c1ccc(O)cc1` gave a relative growth of 1.15.
Work on `OCCC[C@@H](O)c1ccc(OCCO)cc1` yielded a relative growth of 1.03.
With `C[C@H](CO)N1C[C@H](C)[C@H](CN(C)C(=O)C2CCOCC2)Oc2cc(-c3ccc(C(=O)N(C)C)cc3)ccc2S1(=O)=O` the relative growth was 1.04.
`CO[C@H]1CN(C)C(=O)c2ccc(NC(=O)c3ccccc3)cc2OC[C@H](C)N(C(=O)CN(C)C)C[C@H]1C` was tested, and the relative growth was 1.08.
Molecule `COc1cccc(NC(=O)N[C@H]2CC[C@@H](CC(=O)N3CCN(C)CC3)O[C@@H]2CO)c1` has a relative growth of 0.938.
For `COc1ccc(C#Cc2ccc3c(c2)O[C@@H](CN(C)C(C)=O)[C@@H](C)CN([C@H](C)CO)S3(=O)=O)cc1`, the relative growth was 1.08.
Work on `CC(=O)O[C@@H]1CC2C(C)(C)C(=O)C3OC3[C@]2(C)C2CC[C@@]3(C)[C@H](c4ccoc4)OC(=O)C4OC43[C@@]21C` (stereo not given in full) yielded a relative growth of 1.34.
Work on `Cc1ccc(S(=O)(=O)NCCOc2nc(N(C)C)nc(N3CCOCC3)n2)cc1` yielded a relative growth of 1.03.
Work on `C=CCN1C(=O)[C@]2(O[C@H](CCO)[C@@H]([Si](C)(C)c3ccc(OC)cc3)[C@@H]2C)c2cc(N(C=O)c3ccccc3)ccc21` yielded a relative growth of 1.07.
`CC(C)NC(=O)N[C@H]1C=C[C@H](CC(=O)NCCCN(C)C)O[C@@H]1CO` was tested, and the relative growth was 1.04.
Work on `CNC(=O)C[C@H]1CC[C@@H]2[C@H](COC[C@H](O)CN2C(=O)c2ccc3c(c2)OCO3)O1` yielded a relative growth of 0.97.
For `CC(=O)N[C@H]1[C@H]([C@H](O)[C@H](O)CO)O[C@](O)(C(=O)O)C[C@@H]1O`, the relative growth was 0.946.
Work on `NC(=O)c1c(Cl)ncc2c1NCC2` yielded a relative growth of 0.95.
`Nc1ccc(S(=O)(=O)Nc2ccnn2-c2ccccc2)cc1` was tested, and the relative growth was 1.04.
